For the series the following is noted: pKa (base), measured, potentiometric.

The compound `CN(C)CCC(c1ccc(Cl)cc1)c1ccccn1` (stereo not shown) [Chlorpheniramine] registered a pKa of 9.35.

The values above are taken from paper PMC5074076, “Novel minimal physiologically-based model for the prediction of passive tubular reabsorption and renal excretion clearance” (European Journal of Pharmaceutical Sciences, 2016).
